Tested on: E. histolytica trophozoites
Experiment: In vitro antiamebic activity (WST-1), L-cysteine-deprived or L-cysteine-supplemented BI-S-33 medium
Assay type: cell-based, Entamoeba histolytica
Conditions: ED50 Cys(+)/ED50 Cys(–), cysteine dependence index
Description: Trophozoites were harvested in a logarithmic growth phase 3 or 4 days after inoculation of 1/30–1/12 volume of the seed culture. After the cultures were chilled on ice for 5 min, trophozoites were collected by centrifugation at 500 × g for 10 min at 4°C. The trophozoites were resuspended in BI-S-33 medium containing 1% (v/v) penicillin/streptomycin (Life Technologies, Grand Islands, NY, U.S.A.), with a final concentration of 5 × 10^4 cells/ml. […] The plates were incubated under anaerobic conditions with Anaeropak for 48 hrs. After incubation, the medium was removed and 90 μl of pre-warmed Opti-MEM I (Life Technologies) and 10 μl of WST-1 solution (Dojindo, Kumamoto, Japan) were added to each well. Optical absorbance at 450 nm was measured on a photospectrometer (SH-9000Lab, Corona Electric, Ibaraki, Japan). Metronidazole (Sigma-Aldrich, MO, USA) was used as positive control. Antiamebic assays were done in triplicate. […] The cysteine dependence of the antiamebic activities was calculated as ED 50Cys(+) /ED 50Cys(-) and expressed as “cysteine dependence index.”
Approximately 2 μl of the compound solution (1 mg/ml, in DMSO) of the Kitasato Natural Products Library or 10 μl of EtOH extracts of microbial culture broth extracts was added to each well of E. histolytica trophozoite-seeded 96-well microtiter plates (final concentrations, 10 μg/ml). […]

## C/C=C/C/C=C/CCC(=O)[C@H]1O[C@H]1C(N)=O [Cerulenin, reference compound]
  Anti-amebic activity Selectivity Cys(+)/Cys(–): 7

From article PMC6290340, “Discovery of Antiamebic Compounds That Inhibit Cysteine Synthase From the Enteric Parasitic Protist Entamoeba histolytica by Screening of Microbial Secondary Metabolites” (Frontiers in Cellular and Infection Microbiology, 2018)
